Results on 1 substance are retold here after patent publication US20260146061A1.

Assay [1] has as its target IgG of IgG Sepharose 6 Fast Flow affinity resin. Put plainly: IgG Sepharose 6 Fast Flow affinity chromatography, cycle 0, soluble protein A load.
Assay [2] shares this target. Description: IgG Sepharose 6 Fast Flow affinity chromatography, cycle 0, soluble protein A load of 7.6 mg at pH 7.4.

In assay [1], “soluble Protein A (from UniProt P38507 37-477)” came in with an eluate recovery, % Mass (bound and eluted) of 76%; an eluate recovery, % Peak Area (bound and eluted) of 100%; a flowthrough recovery, % Peak Area (unbound) of 0%. This substance also returned a pooled eluate mass (bound and eluted) in assay [2] of 1.2 mg.
